According to article PMC6706627, “Mapping Interactions of Microbial Metabolites with Human G-Protein-Coupled Receptors” (Cell Host & Microbe, 2019):

Biological target: T1, F2R (Homo sapiens, UniProt P25116)
T1 sequence (P25116 1-425): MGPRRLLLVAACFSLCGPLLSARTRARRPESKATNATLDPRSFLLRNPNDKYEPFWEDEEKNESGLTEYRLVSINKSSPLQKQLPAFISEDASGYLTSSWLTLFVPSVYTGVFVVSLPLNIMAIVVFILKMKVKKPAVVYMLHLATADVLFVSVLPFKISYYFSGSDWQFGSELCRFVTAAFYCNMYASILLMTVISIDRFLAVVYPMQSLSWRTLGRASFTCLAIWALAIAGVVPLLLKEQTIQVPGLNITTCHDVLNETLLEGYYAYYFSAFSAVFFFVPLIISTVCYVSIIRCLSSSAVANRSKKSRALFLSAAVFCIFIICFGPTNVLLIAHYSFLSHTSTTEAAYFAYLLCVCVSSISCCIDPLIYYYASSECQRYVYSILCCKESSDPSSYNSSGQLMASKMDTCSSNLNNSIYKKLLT
Experiment: cell-based

Question: Which EC50 does the source give for `CC(C)C[C@H](NC(=O)[C@H](CC(C)C)NC(=O)[C@H](Cc1ccccc1)NC(=O)[C@@H](N)[C@@H](C)O)C(=O)N[C@@H](CCCNC(=N)N)C(N)=O` [TFLLR-NH2] here?
Answer: 12.4 µM
